Here are results for 57 molecules from PubChem BioAssay AID652106 (National Center for Advancing Translational Sciences (NCATS), 2013).

“And” between values parts separate entries of the source, which are not always exact repeats. Identical values can stand only once. This is a selection; strong and weak results do not stand in their true shares. The source made the active and inactive calls. Calls follow the shape of the dose curve; as a rule, active = well fitted activation curve with a large enough effect; inconclusive = small, poorly fitted or top-dose-only effect; inactive = no such curve, though single readings can be large or run the other way.

This test can be described thus: qHTS of alpha-syn Inhibitors. Also: % of control where 0% means no effect; nearly all actives have a fitted effect of over 65% in size. Conditions: Yeast expressing alpha-synuclein, BacTiter-Glo, 24 h; at 46.1 µM (top of the series). An excerpt:
The goal of this project is to identify new chemical probes capable of reversing the toxicity associated with the Parkinson disease-related protein, alpha-synuclein. Compounds will be selected on their ability to restore growth in yeast cells expressing toxic levels of alpha-synuclein. These compounds will provide a complementary approach to deciphering the tangled mechanisms of toxicity and protection that we have uncovered through genome-wide genetic screens and are beginning to uncover in a large-scale proteomics analysis with mass spectroscopy. To this end, a miniaturized assay was developed to be screened against the Molecular Libraries Small Molecule Repository (MLSMR) to discover alpha-synuclein inhibitors. Please note that in the set-up this yeast-based assay compounds that inhibit as alpha-syn, have a read-out as activators. NIH Chemical Genomics Center [NCGC] NIH Molecular Libraries Probe Centers Network [MLPCN] MLPCN Grant: NS060957 Assay Submitter (PI): Susan Lindquist, Whitehead Institute/MIT
Dispense 2.5 microL yeast galactose medium per 1536-well plate, pin compound, dispense 2.5 microL alpha-synuclein expressing yeast in galactose medium at OD600=0.02 (pregrown in raffinose medium to mid-log phase) per well, incubate for 24 hr at 30 deg C, and cell growth will be measured using 5 microL of Bactiter/Glo reagent to entire plate and read using Luminescence Protocol in ViewLux.
In general terms: Quantitative high-throughput screening tests each substance at several concentrations.
Take `O=C(O)C(=O)c1ccc(N(CCCl)CCCl)cc1`: the growth rescue (activation) is inactive: 0.644%.

With `CCOC(=O)c1ccc(NC(=O)C(C)(CCl)SC)cc1` (configuration not stated), the growth rescue (activation) is inactive: -2.57%.

Consider `CSc1ccc(Nc2c([N+](=O)[O-])cc([N+](=O)[O-])cc2[N+](=O)[O-])cc1`, for which the growth rescue (activation) is inactive: -6.9%.

As for `O=C(OC1CN2CCC1CC2)c1cccc([N+](=O)[O-])c1` (configuration not stated), the growth rescue (activation) was inactive: 0.68%.

Consider `CCOP(=O)(Nc1cccc2cccnc12)OCC`, for which the growth rescue (activation) was inactive: -1.03%.

In the case of `CCC(C)N(CC(C)C)C(=S)SC(NC(C)=O)C(Cl)(Cl)Cl` (configuration not stated), the growth rescue (activation) was inactive: 7.21%.

Regarding `Cc1cc(=O)[nH]c(N[N+](=O)[O-])n1`, the growth rescue (activation) is inactive: 3.55%.

For the molecule `O=C(OC1CN2CCC1CC2)C12CC3CC(CC(C3)C1)C2` (configuration not stated), the growth rescue (activation) is inactive: -16.9%.

Take `Cc1c2c(nc3ccccc13)SC(C(Cl)Cl)C2` (configuration not stated): the growth rescue (activation) was inactive: -1.43%.

For `COc1cc(I)ccc1[As](=O)(O)O`, the growth rescue (activation) was inactive: -4.41%.

Consider `COc1ccc2nc(NP(=O)(c3ccccc3)c3ccccc3)sc2c1`, for which the growth rescue (activation) was inactive: 5.13%.

Take `O=P1(N(CCCl)CCCl)OCCCN1CCCl` (configuration not stated): the growth rescue (activation) is inactive: -1.16%.

With `O=P1(N(CCCl)CCCl)Nc2ccccc2N1`, the growth rescue (activation) is inactive: -12.9%.

For the molecule `COc1ccc(N/C(=N/P(=O)(N2CCOCC2)N2CCOCC2)N2CCOCC2)cc1`, the growth rescue (activation) is inactive: -0.692%.

On to `O=[N+]([O-])c1cc(Oc2ccc([N+](=O)[O-])cc2C(F)(F)F)cc([N+](=O)[O-])c1`, for which the growth rescue (activation) is inactive: 5.18%.

For `COc1cc(C(=O)NCC2(N3CCOCC3)CCCCC2)ccc1OCC(C)C`, the growth rescue (activation) was inactive: -1.06%.

`O=[N+]([O-])c1ccc(-c2cc([N+](=O)[O-])c(O)c([N+](=O)[O-])c2)cc1`: the growth rescue (activation) is inactive: -65.7%.

With `C[As](=O)(O)c1cccc(C(=O)O)c1`, the growth rescue (activation) is inactive: -9.73%.

Regarding `O=[As](O)(c1ccc(O)cc1)c1ccccc1O`, the growth rescue (activation) is inactive: 0.934%.

Consider `Cc1ccc2nc3c(c(C)c2c1)CC(C(Cl)Cl)S3` (configuration not stated), for which the growth rescue (activation) is inactive: -5.53%.

Turning to `Cc1ccc(OP(=O)(Nc2ccc([N+](=O)[O-])cn2)Oc2ccc(C)cc2)cc1`, the growth rescue (activation) was inactive: -4.72%.

Consider `[N-]=[N+]=NC1CCCCC1NC(=O)c1cc([N+](=O)[O-])cc([N+](=O)[O-])c1` (configuration not stated), for which the growth rescue (activation) was inactive: -5.35%.

Regarding `CC(C)c1ccc(OP(=O)(Nc2ccccn2)Oc2ccccc2F)cc1` (configuration not stated), the growth rescue (activation) is inactive: -0.574%.

Regarding `COC(=O)C1(C)COP(=O)(N2CCCCCC2)OC1` (configuration not stated), the growth rescue (activation) is inactive: -7.46%.

On to `O=Cc1ccc(NCCCl)cc1`, for which the growth rescue (activation) is inactive: 4.87%.

`ClCCSc1nnc(-c2cccnc2)o1`: the growth rescue (activation) was inactive: 0.151%.

Regarding `O=[N+]([O-])c1cc([N+](=O)[O-])c(-c2ccn[nH]2)s1`, the growth rescue (activation) was inactive: -8.19%.

For the molecule `O=C(OC1CN2CCC1CC2)c1cccc2[nH]cnc12` (configuration not stated), the growth rescue (activation) is inactive: 0.388%.

As for `CCN(CC)C(=S)SC(NC=O)C(Cl)(Cl)Cl` (configuration not stated), the growth rescue (activation) was inactive: 3.44%.

As to `CC(C)NC(=O)NP(=O)(Oc1ccccc1)Oc1ccccc1`, the growth rescue (activation) is inactive: -2.99%.

Take `CCCC1OP(N)(=O)OCC1CC` (configuration not stated): the growth rescue (activation) is inactive: 0.924%.

With `CC(=O)Nc1ccc([As](=O)(O)O)cc1`, the growth rescue (activation) is inactive: 2.83%.

In the case of `CN(C)P(=O)(N(C)C)n1c(Nc2ccccc2)nnc1-c1ccccc1`, the growth rescue (activation) was inactive: 7.84%.

With `O=P(Nc1nc2ccc(Cl)cc2s1)(c1ccccc1)c1ccccc1`, the growth rescue (activation) was inactive: 11%.

Take `CN(C(=O)Cc1ccc(Cl)c(Cl)c1)[C@H]1CCCC[C@@H]1N1CCCC1`: the growth rescue (activation) is inactive: 2.67% and inactive: 0.414% and inactive: -0.458%.

Take `Cc1ccc(NP(=O)(Oc2ccccc2F)Oc2ccccc2F)nc1`: the growth rescue (activation) is inactive: -9.12%.

As to `CCOP(=O)(Nc1ccccc1)OCC`, the growth rescue (activation) is inactive: 0.494%.

Consider `Cc1cc(SC(NC(=O)c2ccc(F)cc2)C(Cl)(Cl)Cl)ncn1` (configuration not stated), for which the growth rescue (activation) is inactive: -0.426%.

In the case of `CCN(N=Nc1nonc1N)c1nonc1N`, the growth rescue (activation) is inactive: 10.5%.

For `Nc1cccc2ccc([As](=O)(O)O)cc12`, the growth rescue (activation) is inactive: -2.53%.

Regarding `O=[N+]([O-])c1cc2c(cc1[N+](=O)[O-])OCO2`, the growth rescue (activation) was inactive: 0.358%.

`NC(=O)c1cc([N+](=O)[O-])cc([N+](=O)[O-])c1N`: the growth rescue (activation) is inactive: 2.39%.

In the case of `Cc1ccc(N/C(=N/P(=O)(N2CCOCC2)N2CCOCC2)N2CCOCC2)cc1`, the growth rescue (activation) is inactive: -2.47%.

On to `CN(C(=O)Cc1ccc(Cl)c(Cl)c1)[C@H]1CCCC[C@H]1N1CCCC1`, for which the growth rescue (activation) was inactive: -12.3%.

With `Cc1ccc(OP(=O)(Nc2nccs2)Oc2ccc(C)cc2)cc1`, the growth rescue (activation) was inactive: 0.72%.

With `COc1ccccc1OP(=O)(Nc1ccc(C)cn1)Oc1ccccc1OC`, the growth rescue (activation) is inactive: -5.45%.

`Clc1ccc(Cl)c(NC2=NCC(CBr)S2)c1` (configuration not stated): the growth rescue (activation) was inactive: -0.574%.

For the molecule `CN1CCCC(OC(=O)C(c2ccccc2)c2ccccc2)C1` (configuration not stated), the growth rescue (activation) is inactive: -21.8%.

Turning to `CC(C)CC(=O)NC(Sc1ccc(Cl)cc1)C(Cl)(Cl)Cl` (configuration not stated), the growth rescue (activation) is inactive: -25.7%.

For `Nc1cc(N)c2nonc2c1[N+](=O)[O-]`, the growth rescue (activation) is inactive: 1.4%.

In the case of `O=C(NC(Sc1ccncn1)C(Cl)(Cl)Cl)c1ccccc1` (configuration not stated), the growth rescue (activation) was inactive: -16%.

Take `Oc1ccccc1CNc1ccccn1`: the growth rescue (activation) is inactive: -8.21%.

As for `O=[N+]([O-])C1C(O)C(O)C([N+](=O)[O-])C(O)C1O` (configuration not stated), the growth rescue (activation) was inactive: 11.5%.

For the molecule `COc1ccc(C2=NCC(CBr)S2)cc1` (configuration not stated), the growth rescue (activation) was inactive: -1.99%.

Turning to `CC(=O)N1C2C3N(C(C)=O)C1C1N(C(C)=O)C(C(N1C(C)=O)N3C(C)=O)N2C(C)=O`, the growth rescue (activation) is inactive: 5.54%.

As to `O=[N+]([O-])c1cccc2n[nH]nc12`, the growth rescue (activation) is inactive: -5.7%.

Turning to `O=[N+]([O-])c1cc([N+](=O)[O-])c(CCNc2ccccc2)c([N+](=O)[O-])c1`, the growth rescue (activation) was inactive: 3.77%.
